Laboratory results as given in US8278343B2, “Pyrrolidines” (Pfizer Inc., priority 2008, dated 2012).

Amino acid sequences for entries named in this document (tags omitted).
UniProt P43116, whole entry: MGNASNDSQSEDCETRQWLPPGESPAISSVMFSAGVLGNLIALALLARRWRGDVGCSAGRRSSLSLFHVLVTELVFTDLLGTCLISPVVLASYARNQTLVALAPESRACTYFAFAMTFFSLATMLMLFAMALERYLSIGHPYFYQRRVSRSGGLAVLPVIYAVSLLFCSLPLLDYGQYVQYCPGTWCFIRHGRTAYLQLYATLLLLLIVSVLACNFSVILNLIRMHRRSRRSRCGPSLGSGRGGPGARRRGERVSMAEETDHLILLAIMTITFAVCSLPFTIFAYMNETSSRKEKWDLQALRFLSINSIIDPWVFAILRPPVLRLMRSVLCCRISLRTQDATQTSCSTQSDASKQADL

Target: recombinant human EP-2 receptor (Homo sapiens, UniProt P43116)
Assay: In vitro antagonist potency against recombinant human prostaglandin E2 (EP-2) receptor in CHO cells (cAMP, Protocol 1)
Settings: read-out: EP2 Ki; CHO cells expressing recombinant human EP-2 receptor, stimulated with 5 nM PGE2; cAMP readout; Ki by Cheng-Prusoff equation
Method: 1.0 Measurement of In Vitro Antagonist Potency (IC50) of Compounds Against Recombinant Human Prostaglandin E2 Receptor in CHO Cells
The prostaglandin E2 (EP-2) receptor is Gs coupled and agonism of the receptor by PGE2 results in activation of intracellular adenylate cyclase enzymes that synthesise the second messenger signalling molecule, adenosine 3′,5′-cyclic monophosphate (cAMP). CHO cells expressing the recombinant human EP-2 receptor are stimulated with PGE2 (5 nM) equivalent to approximately […] values to give the maximal cAMP signal. Decreases in cAMP levels following treatment of stimulated recombinant EP-2 cells with potential antagonist compounds were measured and potency (IC50) calculated as follows.
A Chinese hamster ovary (CHO) cell line stably transfected with full length cDNA encoding human Prostaglandin E2 was established using standard molecular biology methods. Test compounds were dissolved in dimethyl sulphoxide (DMSO) at 4 mM. 11 point half log unit increment dilution series of test compound were prepared in DMSO then diluted 1 in 40 in a buffer comprised of phosphate buffered saline (PBS) and 0.05% pluronic F-127 surfactant. Freshly cultured cells at 80-90% confluence were harvested and re-suspended in 90% growth media/10% DMSO. The cells were frozen using a planar freezer and stored in frozen aliquots in cryovials in liquid nitrogen until the day of the experiment. A vial of cells was defrosted in a 37° C. water bath for 2 min, then transferred to 10 ml of Dulbecco's Modified Eagle's Medium (DMEM). The cells were then centrifuged for 5 min at 1000 g and the pellet re-suspended at 1,000,000 cells/ml in DMEM. 5,000 cells (5 ul) were added to 5 ul of the compound dilution series in a 384 well assay plate and pre-incubated for 30 min at 37° C. 5 ul of agonist (15 nM PGE2 in PBS to give 5 nM FAC) was added and plates further incubated for 90 min at 37° C. The relative cAMP concentration in each well was then measured using a β-galactosidase enzyme fragment complementation method purchased in kit form as the Discoverx cAMP II kit from GE Healthcare, UK. […] Sigmoidal curves were fitted to plots of log10 inhibitor concentration vs percent effect. IC50 estimates were determined as the concentration of test compound giving an effect half way between the bottom and top asymptotes of the sigmoidal dose response curve. Each experiment included an IC50 determination for the literature compound as a standard to track assay consistency and allow fair comparison between values obtained in different experiments. The EC50 of PGE2 is used in combination with the ligand concentration in the assay to determine Ki values for antagonist dose responses using the Cheng-Prusoff equation. Consequently an agonist dose response curve is carried out for each experiment using the same incubation as the antagonist plate.

**Q.** `COc1ccc(C(=O)N2CCC(COc3ccc(-c4ccc(C#N)cc4)cc3)(C(=O)O)C2)cc1` (single isomer, unassigned) was tested. Which Ki did it give?
**A.** 43.8 nM

**Q.** How did the Ki turn out when `COc1ccccc1C(=O)N1CCC(COc2ccc(-c3ccc(C#N)cn3)cc2)(C(=O)O)C1` (single isomer, unassigned) was run?
**A.** 979 nM

**Q.** Which Ki does the source give for `N#Cc1ccc(-c2ccc(OCC3(C(=O)O)CCN(C(=O)c4ccc(F)cc4)C3)cc2)cc1` (single isomer, unassigned) here?
**A.** 82.1 nM

**Q.** For `N#Cc1ccc(-c2ccc(OCC3(C(=O)O)CCN(C(=O)c4ccc(F)cc4)C3)cn2)cc1` (single isomer, unassigned), which Ki is on record?
**A.** 94.6 nM

**Q.** `NC(=O)c1cnc(-c2ccc(OCC3(C(=O)O)CCN(C(=O)c4ccc(F)cc4)C3)cc2)nc1` (single isomer, unassigned) was tested. Which Ki did it give?
**A.** 7.29 nM

**Q.** Which Ki does the source give for `O=C(c1ccc(F)cc1)N1CCC(COc2cnc(-c3ccc(F)cc3)cn2)(C(=O)O)C1` (single isomer, unassigned) here?
**A.** 42.7 nM

**Q.** With `O=C(c1ccc(F)cc1)N1CCC(COc2ccc(-c3ccc(F)cc3)nc2)(C(=O)O)C1` (single isomer, unassigned) [8] as the compound, how does the Ki read?
**A.** 10.9 nM

**Q.** Which Ki does the source give for `O=C(c1ccc(F)cc1)N1CCC(COc2ccc(-c3ccc(F)cc3)nc2)(C(=O)O)C1` (single isomer, unassigned) [9] here?
**A.** 520 nM

**Q.** Which Ki does the source give for `N#Cc1ccc(-c2ccc(OCC3(C(=O)O)CCN(C(=O)c4ccc(F)cc4)C3)cc2)nc1` (single isomer, unassigned) [19] here?
**A.** 2.35 nM

**Q.** Which Ki does the source give for `N#Cc1ccc(-c2ccc(OCC3(C(=O)O)CCN(C(=O)c4ccc(F)cc4)C3)cc2)nc1` (single isomer, unassigned) [20] here?
**A.** 89 nM

**Q.** Which Ki does the source give for `O=C(c1ccc(F)cc1)N1CCC(COc2ccc(-c3ncc(F)cn3)cc2)(C(=O)O)C1` (single isomer, unassigned) [21] here?
**A.** 4.09 nM

**Q.** How did the Ki turn out when `O=C(c1ccc(F)cc1)N1CCC(COc2ccc(-c3ncc(F)cn3)cc2)(C(=O)O)C1` (single isomer, unassigned) [22] was run?
**A.** 142 nM

**Q.** For `O=C(c1ccc(Cl)cc1)N1CCC(COc2ccc(-c3ccc(Cl)cn3)cc2)(C(=O)O)C1` (single isomer, unassigned) [28], which Ki is on record?
**A.** 0.334 nM

**Q.** For `O=C(c1ccc(Cl)cc1)N1CCC(COc2ccc(-c3ccc(Cl)cn3)cc2)(C(=O)O)C1` (single isomer, unassigned) [29], which Ki is on record?
**A.** 28.2 nM

**Q.** `COc1ccccc1C(=O)N1CCC(COc2ccc(-c3ccc(Cl)cn3)cc2)(C(=O)O)C1` (single isomer, unassigned) [77] was tested. Which Ki did it give?
**A.** 213 nM

**Q.** How did the Ki turn out when `COc1ccccc1C(=O)N1CCC(COc2ccc(-c3ccc(Cl)cn3)cc2)(C(=O)O)C1` (single isomer, unassigned) [78] was run?
**A.** 511 nM
